Drawing on ChEMBL document CHEMBL3808321, “LAT-1 activity of meta-substituted phenylalanine and tyrosine analogs” (Bioorg Med Chem Lett, 2016), this text covers inhibition and Activity for 2 compounds.

The chains behind the UniProt entries cited, without tags or fusion partners. Where a name states a change or a piece, a line headed by the entry shows the natural chain unless it says otherwise.
UniProt Q01650: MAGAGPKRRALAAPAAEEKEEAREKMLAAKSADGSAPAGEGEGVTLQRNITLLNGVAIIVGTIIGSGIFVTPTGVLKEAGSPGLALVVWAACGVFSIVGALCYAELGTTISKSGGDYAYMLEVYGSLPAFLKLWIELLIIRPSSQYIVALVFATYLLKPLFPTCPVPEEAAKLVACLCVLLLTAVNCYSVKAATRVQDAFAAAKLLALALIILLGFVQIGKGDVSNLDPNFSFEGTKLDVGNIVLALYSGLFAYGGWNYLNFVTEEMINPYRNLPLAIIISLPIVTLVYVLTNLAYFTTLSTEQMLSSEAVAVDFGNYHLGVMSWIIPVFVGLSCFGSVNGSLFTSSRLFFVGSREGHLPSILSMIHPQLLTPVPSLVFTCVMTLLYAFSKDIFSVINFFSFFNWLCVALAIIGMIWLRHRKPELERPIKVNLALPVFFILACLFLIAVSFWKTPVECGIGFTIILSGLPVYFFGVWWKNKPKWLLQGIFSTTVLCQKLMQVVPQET

For assay [1], the target named is T1, Large neutral amino acids transporter small subunit 1 (Homo sapiens, UniProt Q01650). The experiment in a line: Inhibition of human LAT1 expressed in HEK cells assessed as reduction in uptake of [3H]-gabapentin at 200 uM after 3 mins by scintillation counting based cis-inhibition assay. The assay is classed as cell-based. Conditions: HEK293. In short, it runs like this: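 HEK cells stably transfected with human LAT-1 cDNA. Test agent at 200 μM competed with [3H]-gabapentin for cellular uptake. Results are % inhibition relative to background signal without inhibitor, with mean of at least three experiments.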

In assay [2] the target is T1, Large neutral amino acids transporter small subunit 1. In words: Substrate activity at human LAT1 expressed in HEK cells assessed as efflux rate of [3H]-gabapentin at 200 uM after 5 to 180 secs by scintillation counting based trans-stimulation assay. The assay is classed as cell-based. Conditions: HEK293. The essentials: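 HEK-hLAT1 cells were preloaded with [3H]-gabapentin, then incubated with test agent at 200 μM. Efflux rate (fmol/min) was compared with efflux in the agent's absence and with L-leucine and L-arginine as positive and negative controls and L-phenylalanine and L-tyrosine as parent amino acids. Mean of at least three experiments.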

By inhibition is commonly meant how much of the control response was suppressed. Regarding `Cc1cccc(C[C@H](N)C(=O)O)c1`, the inhibition in assay [1] turned out to be 73%. Also, in assay [2], the Activity is 3.8 fmol/min.
For `Cc1ccccc1C[C@H](N)C(=O)O` the same measures were 98% and 2.7 fmol/min.
